Measurements from patent US20140336193A1, “POTENT NON-UREA INHIBITORS OF SOLUBLE EPOXIDE HYDROLASE” (priority 2012, published 2014).

Experiment: In vitro human liver microsomal metabolic stability (Example 4)
Type: in vitro ADME
Settings: microsomes
Method: The stability of sEH inhibitors in a human liver microsomal assay was determined as a predictor of in vivo oxidative metabolism. Microsomal stability was assessed in pooled human liver microsomes (Celsis, Edison, N.J.). All reactions were carried out for 90 min at 37° C. in an NADPH-generating system consisting of glucose 6-phosphate, glucose 6-phosphate dehydrogenase, and NADP^+ (Sigma, St. Louis, Mo.). Positive control incubations proceeded with 7-ethoxycoumarin as the substrate. Reactions were terminated by adding methanol. The mixtures were centrifuged and the supernatants were evaporated. The residues were reconstituted in mobile phase (85% ACN; 15% H2O) and subjected to LC/MS analysis.

## Cc1ccc(S(=O)(=O)N2CCC(C(=O)NC3CCCCCC3)CC2)c(C)c1 [Compound 2]
  CLint, app: 220 mL/min/kg
  hLM t1/2: 5.5 min
